Data set [1] is described as follows: Plasma protein binding, equilibrium dialysis (Test Example 1). The following applies: mouse plasma, 5 µmol/L, equilibrium dialysis (RED device), 8 hours.
Data set [2] in a line: Evaluation of brain penetration in mice after single oral administration (Test Example 2).
Data set [3] can be described thus: Brain penetration (Kp) at 0.5 hours after oral administration (Test Example 3). The following applies: 0.5 hours after oral administration at a dose of 40 mg/kg.
Data set [4] has as its system NIH/3T3 cells expressing EGFR with Ex19del (Del E746-A750), T790M and C797S mutations (ex19del/T790M/C797S) (SEQ ID NO: 2) and luciferase. The experiment in a line: Efficacy evaluation in mouse brain transplantation model (Test Example 4).
Data set [5] in a line: Brain protein binding, equilibrium dialysis (Test Example 1). The following applies: mouse brain homogenate, 5000 nmol/g, dilution factor considered.
The next data set deals with P-gp and BCRP. The data set can be described thus: Transcellular transport test in Caco-2 cells for P-gp and BCRP substrate properties (Test Example 7). The following applies: for Papp Apical to basal: mean ± standard deviation (n = 3).
Data set [6] relates to NIH/3T3 cells expressing EGFR with Ex19del (Del E746-A750), T790M and C797S mutations (ex19del/T790M/C797S) (SEQ ID NO: 2). The data set can be described thus: Efficacy evaluation in mouse subcutaneous transplantation model (Test Example 5). The following applies: for mean tumor volume on Day 11: subcutaneous model, Day 1 until Day 10.

As to `C#Cc1c(-c2cnc3ccccc3c2)c2c(N)ncnc2n1C12CCC(NC(=O)c3cnc(C)cn3)(CC1)C2`, in data set [1], the “plasma protein unbound rate” value came to 0.0008. Besides, the “AUC0-24 Brain” value is 11900 ng·h/g in data set [2] (single oral dose 20 mg/kg), 52800 ng·h/g in data set [2] (single oral dose 40 mg/kg) and 134000 ng·h/g in data set [2] (single oral dose 80 mg/kg). Further, the “AUC0-24 Plasma” value in data set [2] (single oral dose 20 mg/kg) stood at 37.3 µg·h/mL; in data set [2] (single oral dose 40 mg/kg) it was 104 µg·h/mL; in data set [2] (single oral dose 80 mg/kg), 194 µg·h/mL. In data set [3], the Kp was 0.832. The molecule further gave a median survival time in data set [4] (intracranial model, oral 80 mg/kg/day from Day 8 until Day 56 (control 24.0 days)) of 56.5 days. The “level of luminescence on Day 21” value in data set [4] (intracranial tumor, oral 80 mg/kg/day from Day 8) is reported as 1.648 × 10^6 ± 8.929 × 10^5 p/s. The “brain protein unbound rate” value in data set [5] is 0.0017. Moreover, the “Papp Apical to basal” value is listed as 1.73 ± 0.17 × 10^-6 cm/sec in the data set with P-gp and BCRP (0.01 µmol/L); 2.38 ± 0.26 × 10^-6 cm/sec in the data set with P-gp and BCRP (0.1 µmol/L); 3.63 ± 0.35 × 10^-6 cm/sec in the data set on P-gp and BCRP (1 µmol/L); 5.56 ± 0.52 × 10^-6 cm/sec in the data set on P-gp and BCRP (3 µmol/L). For the same molecule, the “substrate for P-gp or BCRP” value in the data set with P-gp and BCRP (judged from Papp ratio less than 2 at 0.01 to 3 µmol/L) is “not a substrate for P-gp or BCRP”. The “mean tumor volume on Day 11” value in data set [6] (oral 10 mg/kg/day) came to 378.5 ± 19.6 mm^3; in data set [6] (oral 20 mg/kg/day), 155.1 ± 22.9 mm^3; in data set [6] (oral 40 mg/kg/day) it was 69.7 ± 7.5 mm^3; in data set [6] (oral 80 mg/kg/day), 34.1 ± 3.9 mm^3.

As to `C#Cc1c(-c2cnc3ccccc3c2)c2c(N)ncnc2n1C12CCC(NC(=O)c3cncnc3)(CC1)C2`, in data set [3], the “Concentration Brain” value was determined as 137 ng/g, the “Concentration Plasma” value came out at 6.34 µg/mL and the Kp was 0.0214.

Consider `C=CC(=O)Nc1cc(Nc2nccc(-c3cn(C)c4ccccc34)n2)c(OC)cc1N(C)CCN(C)C`, for which the “mean tumor volume relative to the mean tumor volume of the control group” value in data set [6] (Day 11, oral 25 mg/kg/day) is 87.2%. Moreover, the “mean tumor volume on Day 11” value in data set [6] (oral 25 mg/kg/day) was 972.9 ± 82.3 mm^3.

In the case of `C#Cc1cccc(Nc2ncnc3cc(OCCOC)c(OCCOC)cc23)c1`, the “mean tumor volume on Day 11” value in data set [6] (oral 80 mg/kg/day) came out at 810.8 ± 47.1 mm^3.
